# Test results published in US20030073218A1, “High affinity inhibitors for target validation and uses thereof” (Princeton University, priority 1999, published 2003).
# Amino acid sequences for entries named in this document (tags omitted).
# UniProt Q9UQM7, whole entry: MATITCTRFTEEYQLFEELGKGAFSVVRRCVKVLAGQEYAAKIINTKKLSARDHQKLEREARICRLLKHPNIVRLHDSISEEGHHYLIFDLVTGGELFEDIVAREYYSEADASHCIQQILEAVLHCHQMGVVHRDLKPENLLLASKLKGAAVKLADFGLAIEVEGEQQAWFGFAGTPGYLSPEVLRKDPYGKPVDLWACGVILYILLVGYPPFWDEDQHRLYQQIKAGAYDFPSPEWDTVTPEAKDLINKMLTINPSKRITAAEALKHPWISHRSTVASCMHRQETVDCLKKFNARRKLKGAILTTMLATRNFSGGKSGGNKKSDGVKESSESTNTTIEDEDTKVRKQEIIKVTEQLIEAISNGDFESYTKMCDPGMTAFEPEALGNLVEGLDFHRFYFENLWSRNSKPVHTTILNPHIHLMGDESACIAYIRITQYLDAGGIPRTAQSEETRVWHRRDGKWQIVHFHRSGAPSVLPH
# Key:
# wild-type CMK IIα = wild-type CMK IIα (Homo sapiens, UniProt Q9UQM7); assay: biochemical
# [1] = molecular target: myosin light chain kinase; settings: reported (89, 90); cited from earlier work
Structure (SMILES),pIC50 (wild-type CMK IIα),pIC50 [1]
"Cc1ccc(-c2nn(C(C)(C)C)c3ncnc(N)c23)cc1 [PP1, 4-amino-1-tert-butyl-3-(p-methylphenyl)pyrazolo[3,4-d]pyrimidine, reference compound]",< 4.82,
"COC(=O)[C@@]1(O)C[C@H]2O[C@]1(C)n1c3ccccc3c3c4c(c5c6ccccc6n2c5c31)C(=O)NC4 [Compound K252a, (+)-K252a]",,≥ 7.52

# pIC50: −log10 of the molar value.
